Earlier results, collected in patent US5700682A, “Mechanism based screen for retinoid X receptor agonists and antagonists” (American Cyanamid Company, priority 1995, dated 1997).

Test system: RXRα and RARα together
Conditions: mammalian cells; low concentrations of ligand; cited from earlier work

CC1=C(/C=C/C(C)=C\C=C\C(C)=C\C(=O)O)C(C)(C)CCC1 [9-cis-RA, 9-cis-retinoic acid]
Activation of transcription by RXRα and RARα together: can activate transcription

CC1=C(/C=C/C(C)=C/C=C/C(C)=C/C(=O)O)C(C)(C)CCC1 [all-trans-RA, all-trans-retinoic acid]
Activation of transcription by RXRα and RARα together: can activate transcription
